# Data taken from ChEMBL document CHEMBL3804765, “One-pot synthesis and sigma receptor binding studies of novel spirocyclic-2,6-diketopiperazine derivatives” (Bioorg Med Chem Lett, 2016).
# Biological target: Sigma non-opioid intracellular receptor 1 (Cavia porcellus, UniProt Q60492)
smiles,measurement,value
c1ccc(CN2CCC3(CC2)N=Nc2ccccc2N3)cc1,Ki,0.6 nM
